Laboratory results as given in US10338078B2, “Method and apparatus for analyzing biomolecules using Raman spectroscopy” (Japan Science and Technology Agency, priority 2012, dated 2019).

Molecular target: cathepsin B (Homo sapiens, UniProt P07858)
Assay: inhibition of cathepsin B enzyme activity
Settings: read-out: activity to inhibit cathepsin B, IC50
Text: Persons skilled in the art can appropriately select the position to introduce the Raman label as well as the type of Raman label to introduce by considering the structure of the compound. Moreover, persons skilled in the art having general techniques in the field of organic synthesis can appropriately synthesize a Raman-labeled compound as the low-molecular-weight compound according to the present invention. This is explained with a specific example as follows. Persons skilled in the art can synthesize an AOMK derivative (hereinafter, also referred to as RAT8-AOMK) by Raman-labeling acyloxymethyl ketone (AOMK) (an inhibitor of cathepsin B) with alkyne using general techniques in the field of organic synthesis. The RAT8-AOMK binds to cathepsin B, so as to inhibit its enzyme activity. The activity of RAT8-AOMK to inhibit cathepsin B is represented by IC50=0.3 μM. RAT8-AOMK can be synthesized and obtained by reacting N-Boc-AOMK (IC50=0.05 μM) with 4-nitrophenyl-4-ethynylbenzyl carbonate. Acyloxymethyl ketone (AOMK) is known as a cysteine protease inhibitor. The principle thereof is that a cysteine residue of the active center of an enzyme protein is modified by AOMK, and thus activity as protease is diminished (see FIG. 24).

IC50: 50 nM
SMILES: Cc1cccc(C)c1C(=O)OCC(=O)CNC(=O)[C@H](Cc1ccccc1)NC(=O)OC(C)(C)C
